Assay results taken from ChEMBL document CHEMBL1138958, “Opioid receptor binding and antinociceptive activity of the analogues of endomorphin-2 and morphiceptin with phenylalanine mimics in the position 3 or 4” (Bioorg Med Chem Lett, 2006).

Protein sequences, listed by entry. Tags and fused reporters are not part of them.
UniProt P33533, whole entry, looked up: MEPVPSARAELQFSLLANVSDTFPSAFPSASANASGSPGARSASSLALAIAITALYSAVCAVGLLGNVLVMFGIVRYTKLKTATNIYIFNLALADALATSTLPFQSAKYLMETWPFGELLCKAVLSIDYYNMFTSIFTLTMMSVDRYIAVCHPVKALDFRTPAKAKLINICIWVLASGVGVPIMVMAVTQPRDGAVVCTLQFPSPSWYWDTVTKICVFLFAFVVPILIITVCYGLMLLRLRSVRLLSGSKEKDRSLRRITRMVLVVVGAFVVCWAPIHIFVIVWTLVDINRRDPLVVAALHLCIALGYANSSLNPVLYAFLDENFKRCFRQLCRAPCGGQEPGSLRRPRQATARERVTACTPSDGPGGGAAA
UniProt P33535, whole entry, looked up: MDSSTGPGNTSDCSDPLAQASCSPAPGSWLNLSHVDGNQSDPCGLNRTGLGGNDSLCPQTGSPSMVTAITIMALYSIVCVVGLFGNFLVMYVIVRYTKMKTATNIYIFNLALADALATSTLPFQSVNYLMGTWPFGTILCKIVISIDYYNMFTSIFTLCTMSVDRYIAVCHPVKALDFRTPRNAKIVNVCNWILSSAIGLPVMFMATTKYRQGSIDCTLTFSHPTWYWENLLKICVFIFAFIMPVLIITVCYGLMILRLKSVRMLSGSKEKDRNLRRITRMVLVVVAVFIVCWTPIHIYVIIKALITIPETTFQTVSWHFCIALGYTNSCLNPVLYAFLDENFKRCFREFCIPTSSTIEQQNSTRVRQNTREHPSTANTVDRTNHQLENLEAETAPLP

Biological target: Opioid receptors; mu & delta (Rattus norvegicus) (UniProt P33533+P33535)
Assay: Selectivity for mu opioid receptor over delta opioid receptor
Format: protein assay

| SMILES | Ratio Ki |
| --- | --- |
| NC(=O)[C@@H](NC(=O)[C@H](Cc1ccccc1)NC(=O)[C@@H]1CCCN1C(=O)[C@@H](N)Cc1ccc(O)cc1)c1ccccc1 | > 372 |
| NC(=O)[C@H](NC(=O)[C@H](Cc1ccccc1)NC(=O)[C@@H]1CCCN1C(=O)[C@@H](N)Cc1ccc(O)cc1)c1ccccc1 | > 46.3 |
